Experiments:
[1] = test system: atabcc1 atabcc2 double knock-out A. thaliana; conditions: ½ MS agar plate, 16 days; low content of As(V) or Cd, or DSMA
AtABCC1 = AtABCC1 (Arabidopsis thaliana, UniProt Q9C8G9); assay: PC2 transport into microsomal vesicles of SM7 yeast expressing AtABCC1; type: biochemical, A. thaliana; conditions: vanadate 1 mM, NH4Cl 5 mM, PC 25 μM
AtABCC2 = AtABCC2 (Arabidopsis thaliana, UniProt Q42093); assay: PC2 transport into microsomal vesicles of SM7 yeast expressing AtABCC2; type: biochemical, A. thaliana; conditions: vanadate 1 mM, NH4Cl 5 mM, PC 25 μM

By UniProt entry, the sequences of proteins in these tests, tags left out. Where a name states a change or a piece, a line headed by the entry shows the natural chain unless it says otherwise.
UniProt Q9C8G9: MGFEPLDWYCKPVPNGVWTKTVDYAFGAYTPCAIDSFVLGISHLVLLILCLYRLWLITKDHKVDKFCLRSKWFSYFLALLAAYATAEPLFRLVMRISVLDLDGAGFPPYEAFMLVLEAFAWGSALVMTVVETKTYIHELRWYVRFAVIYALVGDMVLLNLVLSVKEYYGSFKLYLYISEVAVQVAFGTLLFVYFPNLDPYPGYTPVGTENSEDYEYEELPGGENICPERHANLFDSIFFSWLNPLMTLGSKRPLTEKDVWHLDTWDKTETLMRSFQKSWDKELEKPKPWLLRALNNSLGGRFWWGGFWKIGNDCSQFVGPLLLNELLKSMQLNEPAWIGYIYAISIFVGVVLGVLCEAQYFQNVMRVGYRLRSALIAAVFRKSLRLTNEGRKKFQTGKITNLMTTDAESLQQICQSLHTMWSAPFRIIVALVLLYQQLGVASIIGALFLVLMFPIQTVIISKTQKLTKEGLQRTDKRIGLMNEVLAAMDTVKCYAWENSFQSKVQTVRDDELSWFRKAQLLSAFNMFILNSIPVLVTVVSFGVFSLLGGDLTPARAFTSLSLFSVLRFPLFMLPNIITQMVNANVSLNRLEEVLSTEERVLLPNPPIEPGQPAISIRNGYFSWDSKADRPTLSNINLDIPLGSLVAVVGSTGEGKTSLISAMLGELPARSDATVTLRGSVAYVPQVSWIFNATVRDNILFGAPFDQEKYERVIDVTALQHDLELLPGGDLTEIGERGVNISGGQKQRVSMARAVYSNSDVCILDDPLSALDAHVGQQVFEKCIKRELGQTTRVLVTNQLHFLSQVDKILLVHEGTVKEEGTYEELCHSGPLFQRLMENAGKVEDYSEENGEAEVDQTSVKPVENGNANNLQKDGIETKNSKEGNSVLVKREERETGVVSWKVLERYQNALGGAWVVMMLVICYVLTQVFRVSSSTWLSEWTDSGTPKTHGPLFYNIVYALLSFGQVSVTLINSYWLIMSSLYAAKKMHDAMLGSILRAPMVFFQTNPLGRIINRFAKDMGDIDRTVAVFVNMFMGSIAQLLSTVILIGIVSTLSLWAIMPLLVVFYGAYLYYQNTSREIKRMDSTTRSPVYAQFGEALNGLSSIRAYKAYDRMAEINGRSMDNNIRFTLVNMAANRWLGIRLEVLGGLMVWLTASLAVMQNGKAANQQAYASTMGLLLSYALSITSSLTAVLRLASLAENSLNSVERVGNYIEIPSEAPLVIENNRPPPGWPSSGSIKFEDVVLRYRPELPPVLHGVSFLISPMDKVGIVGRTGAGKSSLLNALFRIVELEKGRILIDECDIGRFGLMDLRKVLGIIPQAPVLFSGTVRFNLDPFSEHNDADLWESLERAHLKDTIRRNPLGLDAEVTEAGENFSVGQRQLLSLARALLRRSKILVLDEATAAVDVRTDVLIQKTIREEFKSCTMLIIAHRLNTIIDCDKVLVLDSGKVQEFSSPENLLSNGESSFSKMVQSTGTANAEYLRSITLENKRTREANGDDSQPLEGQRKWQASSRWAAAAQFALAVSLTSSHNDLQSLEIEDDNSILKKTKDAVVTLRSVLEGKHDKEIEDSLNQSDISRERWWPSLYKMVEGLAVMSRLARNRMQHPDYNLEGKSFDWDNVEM
UniProt Q42093: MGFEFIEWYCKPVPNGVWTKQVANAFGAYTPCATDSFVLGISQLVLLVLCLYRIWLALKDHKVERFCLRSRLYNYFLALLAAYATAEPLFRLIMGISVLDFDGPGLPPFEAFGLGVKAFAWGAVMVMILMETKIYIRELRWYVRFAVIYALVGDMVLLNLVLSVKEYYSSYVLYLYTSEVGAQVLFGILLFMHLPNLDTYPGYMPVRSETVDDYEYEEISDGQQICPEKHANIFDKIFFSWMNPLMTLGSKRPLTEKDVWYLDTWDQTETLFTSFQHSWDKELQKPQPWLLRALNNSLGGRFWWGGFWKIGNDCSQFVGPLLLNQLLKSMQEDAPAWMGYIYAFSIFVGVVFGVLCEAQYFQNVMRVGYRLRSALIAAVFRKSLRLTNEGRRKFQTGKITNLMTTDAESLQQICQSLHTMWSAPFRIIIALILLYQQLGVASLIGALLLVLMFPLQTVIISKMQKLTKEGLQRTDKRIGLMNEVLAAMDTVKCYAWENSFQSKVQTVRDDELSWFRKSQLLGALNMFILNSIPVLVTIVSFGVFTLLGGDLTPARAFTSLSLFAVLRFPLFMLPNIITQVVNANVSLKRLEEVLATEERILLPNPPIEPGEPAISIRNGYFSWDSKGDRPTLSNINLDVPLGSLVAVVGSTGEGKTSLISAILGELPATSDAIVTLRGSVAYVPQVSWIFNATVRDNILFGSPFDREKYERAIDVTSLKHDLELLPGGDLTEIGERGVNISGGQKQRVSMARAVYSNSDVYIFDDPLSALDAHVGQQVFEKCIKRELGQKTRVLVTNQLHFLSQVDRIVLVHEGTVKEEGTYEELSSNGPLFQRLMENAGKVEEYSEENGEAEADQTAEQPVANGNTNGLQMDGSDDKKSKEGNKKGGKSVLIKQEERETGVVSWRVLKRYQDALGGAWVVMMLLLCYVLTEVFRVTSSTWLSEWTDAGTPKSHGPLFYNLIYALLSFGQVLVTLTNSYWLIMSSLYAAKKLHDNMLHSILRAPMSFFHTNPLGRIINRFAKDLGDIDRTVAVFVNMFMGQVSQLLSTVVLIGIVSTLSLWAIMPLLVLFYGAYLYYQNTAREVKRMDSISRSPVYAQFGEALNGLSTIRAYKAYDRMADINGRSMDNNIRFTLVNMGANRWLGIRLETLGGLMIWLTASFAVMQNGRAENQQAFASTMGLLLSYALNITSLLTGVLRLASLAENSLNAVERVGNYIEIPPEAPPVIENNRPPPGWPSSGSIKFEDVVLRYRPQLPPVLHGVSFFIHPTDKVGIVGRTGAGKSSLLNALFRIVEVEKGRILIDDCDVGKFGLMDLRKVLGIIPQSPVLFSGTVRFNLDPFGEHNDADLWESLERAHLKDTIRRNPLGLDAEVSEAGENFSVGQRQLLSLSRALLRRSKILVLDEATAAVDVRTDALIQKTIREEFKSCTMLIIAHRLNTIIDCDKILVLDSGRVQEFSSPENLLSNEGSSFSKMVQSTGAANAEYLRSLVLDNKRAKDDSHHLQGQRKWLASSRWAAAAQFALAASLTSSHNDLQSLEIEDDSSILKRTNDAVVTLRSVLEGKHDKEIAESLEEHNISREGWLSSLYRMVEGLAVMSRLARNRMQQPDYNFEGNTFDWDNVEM

Compound	growth of the atabcc1 atabcc2 knock-out line compared with the wild type [1]	inhibition of absorption of PC2—As complex into the yeast vesicle (AtABCC1)	inhibition of absorption of PC2—As complex into the yeast vesicle (AtABCC2)
C[As](=O)(O)O	dramatically inhibited	–	–
NH4Cl	–	not inhibited	not inhibited

From patent publication US20130212738A1, “COMPOSITION FOR PHYTOCHELATIN TRANSPORT” (POSTECH ACADEMY-INDUSTRY FOUNDATION, priority 2010, published 2013)
